Columns and labels:
[1] = target: human cytidine deaminase (hCDA) (Homo sapiens, UniProt P32320); assay: UV kinetic assay of hCDA-catalysed 2'-deoxycytidine deamination; conditions: pH 7.4, 25 °C, substrate dC, competitive inhibition assumed
Protocol: We monitored the hCDA-catalysed deamination of dC at 286 nm and analysed the kinetic profiles at various inhibitor concentrations using a global regression analysis of the kinetic data using Lambert’s W function. This method provides better estimates for the Michaelis–Menten constant (KM) and maximum velocity (Vmax) than nonlinear regression analysis of the initial rate (V0). […] Then, KM for the substrate and Ki for each inhibitor were calculated, assuming competitive nature of the inhibitors (Table 1).
We assumed that protonation of Va might result in some inhibition of hCDA. […] This means that the pH value of the assay should be close to pH 1.5 to see any meaningful effect of partially protonated compound Va, but hCDA would be denatured at this pH value. By lowering the pH value to 6.0, dZ (IIc) started to lose potency against hCDA (Table 1), which might be a result of protonation of the pyrimidine ring in dZ (IIc). […]
Figure S10. hCDA (27nM) catalysed deamination of 2'-deoxycitidine (⁓1.5 mM) in the absence (plus) and presence of 5 µM 2'-deoxyzebularine (IIc, asterisk) monitored by measuring absorbance at 286 nm over time in 100 mM NaCl, 1 mM TCEP, 50 mM phosphate buffer at 25 °C, at pH 7.4. […]
where mm(t) calculates the current substrate concentration with respect to the time, t. […] A summary of the measured inhibition […]
Uncertainty of Ki was calculated using error-propagation method. […]

Protein sequences, listed by entry. Tags and fused reporters are not part of them.
UniProt P32320, whole entry: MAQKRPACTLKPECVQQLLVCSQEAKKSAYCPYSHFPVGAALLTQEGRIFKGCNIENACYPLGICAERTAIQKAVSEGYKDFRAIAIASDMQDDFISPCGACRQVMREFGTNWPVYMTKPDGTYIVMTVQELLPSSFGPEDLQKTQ

[2] = Stability in aqueous solution (NMR samples)
Source text: Catalytic hydrogenation is usually used for the removal of benzyl protecting groups. However, standard hydrogenation conditions using 10% Pd/C led to reduction of the C=C double bond in the nucleobase, providing nucleoside 24 (Scheme 3). To circumvent this problem, we used poisoned Pd catalyst (Lindlar’s catalyst, 5% Pd/CaCO3/3% Pb) and obtained the desired nucleoside 18. Individual anomers of nucleosides 18 and 24 were separated on a C18 column using a gradient of CH3CN in H2O. Removal of toluoyl groups was accomplished in aq NH3, providing pure α- and β-nucleoside of Va and Vc, respectively, carrying a negatively charged phosphinic acid group.

SMILES: NP1(=O)C=CN(C2C[C@H](O)[C@@H](CO)O2)C(=O)C1 (stereo partly drawn)
- Ki [1]: 8 µM
- stability under basic conditions ([2]; basic conditions): unstable
- stability in water ([2]; pH 7.4): excellent stability

From publication PMC11106675, “Synthesis of 1,4-azaphosphinine nucleosides and evaluation as inhibitors of human cytidine deaminase and APOBEC3A” (Beilstein Journal of Organic Chemistry, 2024)
